Reference: patent US12685735B2 (Foghorn Therapeutics Inc., priority 2020, dated 2026)

Amino acid sequences for entries named in this document (tags omitted).
UniProt P51532, whole entry: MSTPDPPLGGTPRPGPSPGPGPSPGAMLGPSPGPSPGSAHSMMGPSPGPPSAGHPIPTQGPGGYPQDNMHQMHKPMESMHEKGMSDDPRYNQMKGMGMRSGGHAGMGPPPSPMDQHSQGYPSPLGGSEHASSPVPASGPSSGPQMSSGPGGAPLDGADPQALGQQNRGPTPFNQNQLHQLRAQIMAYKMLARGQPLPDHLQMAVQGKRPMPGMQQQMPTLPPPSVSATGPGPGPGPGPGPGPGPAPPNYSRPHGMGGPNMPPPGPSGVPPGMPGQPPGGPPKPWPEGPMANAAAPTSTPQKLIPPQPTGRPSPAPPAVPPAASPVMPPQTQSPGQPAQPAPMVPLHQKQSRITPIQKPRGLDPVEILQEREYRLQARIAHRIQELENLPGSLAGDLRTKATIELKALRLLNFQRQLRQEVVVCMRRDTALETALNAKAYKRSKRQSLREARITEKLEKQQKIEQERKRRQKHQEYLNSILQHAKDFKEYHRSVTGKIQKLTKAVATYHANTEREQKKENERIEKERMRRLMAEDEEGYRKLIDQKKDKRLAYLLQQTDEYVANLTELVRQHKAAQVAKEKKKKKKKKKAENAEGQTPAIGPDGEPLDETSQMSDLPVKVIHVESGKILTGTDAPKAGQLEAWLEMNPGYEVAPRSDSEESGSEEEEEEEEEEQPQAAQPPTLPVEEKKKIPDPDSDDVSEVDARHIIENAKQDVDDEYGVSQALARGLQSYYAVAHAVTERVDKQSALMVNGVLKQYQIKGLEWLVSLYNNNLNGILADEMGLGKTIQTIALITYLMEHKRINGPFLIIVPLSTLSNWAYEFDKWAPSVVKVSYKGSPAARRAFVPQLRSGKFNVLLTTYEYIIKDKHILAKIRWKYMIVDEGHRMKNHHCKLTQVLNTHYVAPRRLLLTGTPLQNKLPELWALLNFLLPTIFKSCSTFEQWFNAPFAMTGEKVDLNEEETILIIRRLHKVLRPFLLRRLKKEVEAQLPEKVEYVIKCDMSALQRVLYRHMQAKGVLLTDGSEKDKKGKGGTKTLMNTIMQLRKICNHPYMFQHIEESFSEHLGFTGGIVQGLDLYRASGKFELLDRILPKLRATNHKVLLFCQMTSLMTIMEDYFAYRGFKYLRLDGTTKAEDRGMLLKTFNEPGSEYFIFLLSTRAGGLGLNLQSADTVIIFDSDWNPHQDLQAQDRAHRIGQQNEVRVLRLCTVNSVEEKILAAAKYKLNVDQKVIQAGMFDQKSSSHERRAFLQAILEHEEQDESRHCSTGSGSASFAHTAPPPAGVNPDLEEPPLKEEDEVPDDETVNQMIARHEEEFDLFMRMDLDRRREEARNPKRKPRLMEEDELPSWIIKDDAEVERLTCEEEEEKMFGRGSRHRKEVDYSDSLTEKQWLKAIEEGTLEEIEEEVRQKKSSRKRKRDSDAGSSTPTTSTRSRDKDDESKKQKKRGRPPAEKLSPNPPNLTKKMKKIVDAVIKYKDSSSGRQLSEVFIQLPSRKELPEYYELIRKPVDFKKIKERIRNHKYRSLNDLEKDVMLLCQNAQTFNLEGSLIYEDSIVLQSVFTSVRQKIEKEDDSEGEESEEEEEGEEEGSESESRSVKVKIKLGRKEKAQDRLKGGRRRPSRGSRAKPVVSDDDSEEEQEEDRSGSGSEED

What follows are compounds tested against BRG-1 (Homo sapiens, UniProt P51532) (assay: ATPase catalytic activity assay of BRG-1 (ADP-Glo)). Conditions: read-out: BRG1 Max % Inhibition.
Format: biochemical
Procedure: (§1) The ATPase catalytic activity of BRM or BRG-1 was measured by the in vitro biochemical assay using ADP-Glo™ (Promega, V9102). The ADP-Glo™ kinase assay is performed in two steps once the reaction is complete. The first step is to deplete any unconsumed ATP in the reaction. The second step is to convert the reaction product ADP to ATP, which will be utilized by the luciferase to generate luminesce and be detected by a luminescence reader, such as Envision.
Then following addition of 5 μL of ADP-Glo™ Reagent provided in the kit, the reaction incubates at room temperature for 40 minutes. Then 10 μL of Kinase Detection Reagent provided in the kit is added to convert ADP to ATP, and the reaction incubates at room temperature for 60 minutes. Finally, luminescence measurement is collected with a plate-reading luminometer, such as Envision.
as §1, with “The” for “The ATPase catalytic activity of BRM or BRG-1 was measured by the in vitro biochemical assay using ADP-Glo™ (Promega, V9102). The”

CC(C)S(=O)(=O)c1cccc(C(=O)NCC(=O)Nc2nc(-c3cccc(-c4ccnc(C(F)(F)F)c4)c3)cs2)c1 [Compound 19, 3-(isopropylsulfonyl)-N-(2-oxo-2-((4-(3-(2-(trifluoromethyl)pyridin-4-yl)phenyl)thiazol-2-yl)amino)ethyl)benzamide] and CC(C)S(=O)(=O)c1cccc(C(=O)NCC(=O)Nc2nc(-c3cccc(-c4ccnc(N)c4)c3)cs2)c1 [Compound 22, N-(2-((4-(3-(2-aminopyridin-4-yl)phenyl)thiazol-2-yl)amino)-2-oxoethyl)-3-(isopropylsulfonyl)benzamide] cannot be ordered by Emax: greater than 70% for the first, greater than 80% for the second.

CC(C)S(=O)(=O)c1cccc(C(=O)NCC(=O)Nc2nc(-c3cccc(-c4cccc(C#N)c4)c3)cs2)c1 [Compound 24, N-(2-((4-(3′-cyano-[1,1′-biphenyl]-3-yl)thiazol-2-yl)amino)-2-oxoethyl)-3-(isopropylsulfonyl)benzamide] and CC(C)S(=O)(=O)c1cccc(C(=O)NCC(=O)Nc2nc(-c3cccc(-c4cccc(Cl)c4)c3)cs2)c1 [Compound 28, N-(2-((4-(3′-chloro-[1,1′-biphenyl]-3-yl)thiazol-2-yl)amino)-2-oxoethyl)-3-(isopropylsulfonyl)benzamide] cannot be ordered by Emax: greater than 60% for the first, greater than 50% for the second.

CC(C)S(=O)(=O)c1cccc(C(=O)NCC(=O)Nc2nc(-c3cccc(-c4ccnc(CO)c4)c3)cs2)c1 [Compound 26, N-(2-((4-(3-(2-(hydroxymethyl)pyridin-4-yl)phenyl)thiazol-2-yl)amino)-2-oxoethyl)-3-(isopropylsulfonyl)benzamide] and CC(C)S(=O)(=O)c1cccc(C(=O)NCC(=O)Nc2nc(-c3cccc(-c4ccnc(CN(C)C)c4)c3)cs2)c1 [Compound 45, N-(2-((4-(3-(2-((dimethylamino)methyl)pyridin-4-yl)phenyl)thiazol-2-yl)amino)-2-oxoethyl)-3-(isopropylsulfonyl)benzamide] cannot be ordered by Emax: greater than 90% for the first, greater than 80% for the second.

CC(C)S(=O)(=O)c1cccc(C(=O)NCC(=O)Nc2nc(-c3cccc(-c4cc(CO)cc(C(F)(F)F)c4)c3)cs2)c1 [Compound 27, N-(2-((4-(3′-(hydroxymethyl)-5′-(trifluoromethyl)-[1,1′-biphenyl]-3-yl)thiazol-2-yl)amino)-2-oxoethyl)-3-(isopropylsulfonyl)benzamide] and CC(C)S(=O)(=O)c1cccc(C(=O)NCC(=O)Nc2nc(-c3cccc(-c4cc(Cl)cc(Cl)c4)c3)cs2)c1 [Compound 30, N-(2-((4-(3′,5′-dichloro-[1,1′-biphenyl]-3-yl)thiazol-2-yl)amino)-2-oxoethyl)-3-(isopropylsulfonyl)benzamide] cannot be ordered by Emax: greater than 80% for the first, greater than 50% for the second.

COc1cc(-c2cccc(-c3csc(NC(=O)CNC(=O)c4cccc(S(=O)(=O)C(C)C)c4)n3)c2)ccn1 [Compound 29, 3-(isopropylsulfonyl)-N-(2-((4-(3-(2-methoxypyridin-4-yl)phenyl)thiazol-2-yl)amino)-2-oxoethyl)benzamide] gave an Emax greater than 80%.
